Experimental data published in patent publication US9284330B2 (priority 2011, dated 2016).
“And” between values parts separate entries of the source, which are not always exact repeats. Equal entries are not always repeated.

The chains behind the UniProt entries cited, without tags or fusion partners. Where a name states a change or a piece, a line headed by the entry shows the natural chain unless it says otherwise.
UniProt O42275: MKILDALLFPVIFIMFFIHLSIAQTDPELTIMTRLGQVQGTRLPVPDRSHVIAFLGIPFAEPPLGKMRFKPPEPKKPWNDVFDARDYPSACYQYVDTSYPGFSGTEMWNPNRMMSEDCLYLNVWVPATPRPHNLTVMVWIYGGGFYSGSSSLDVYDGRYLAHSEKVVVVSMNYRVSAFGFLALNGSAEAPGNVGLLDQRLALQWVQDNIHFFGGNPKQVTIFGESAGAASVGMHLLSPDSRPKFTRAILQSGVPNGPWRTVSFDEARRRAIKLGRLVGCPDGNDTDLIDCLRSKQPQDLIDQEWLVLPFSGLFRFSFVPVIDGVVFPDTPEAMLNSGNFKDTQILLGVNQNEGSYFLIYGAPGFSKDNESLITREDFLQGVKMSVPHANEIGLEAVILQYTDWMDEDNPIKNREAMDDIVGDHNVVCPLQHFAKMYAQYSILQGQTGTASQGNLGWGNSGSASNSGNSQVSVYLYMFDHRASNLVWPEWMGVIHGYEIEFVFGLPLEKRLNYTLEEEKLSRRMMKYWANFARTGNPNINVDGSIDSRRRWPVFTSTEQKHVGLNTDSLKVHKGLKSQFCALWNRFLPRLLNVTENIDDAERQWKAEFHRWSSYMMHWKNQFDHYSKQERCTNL

Tests used:
[1] = tested on: L-type Ca2+ channel; experiment: Blocking of L-type Ca2+ channel by high content screening analyzer, KCl-induced calcium ion influx in SH-SY5Y cells (Fluo-4-AM)
[2] = biological target: acetylcholinesterase (Electrophorus electricus (Electric eel) (Gymnotus electricus), UniProt O42275); experiment: biochemical

Compound: COC(=O)C1=C(C)Nc2nc3c(c(N)c2C1c1cccc([N+](=O)[O-])c1)CCC(C)C3 (centres unmarked) [Compound S22, 5-amino-2,8-dimethyl-4-(3-nitrophenyl)-1,4,6,7,8,9-hexahydrobenzo[b][1,8]naphthyridine-3-carboxylic acid methyl ester]
- Inhibition rate of KCl-induced calcium ion influx [1]: 45.06% and 82.60%

Compound: COC(=O)C1=C(C)Nc2nc3c(c(N)c2C1c1cccc([N+](=O)[O-])c1)CCCC3Cl (centres unmarked) [Compound S21, 5-amino-9-chloro-2-methyl-4-(3-nitrophenyl)-1,4,6,7,8,9-hexahydrobenzo[b][1,8]nap hthyridine-3-carboxylic acid methyl ester]
- IC50 [2]: 1110 nM
